Reference: patent publication US8088387B2, “Method of targeting specific cell populations using cell-binding agent maytansinoid conjugates linked via a non-cleavable linker, said conjugates, and methods of making said conjugates” (Immunogen Inc., priority 2003, dated 2012)

Tests used:
[1] = in vitro clonogenic / indirect cytotoxicity assays, cell line not given; format: cell-based
Excerpt: Cell-binding agent maytansinoid conjugates of the invention can be evaluated for their ability to suppress proliferation of various cell lines in vitro. For example, cell lines such as the human colon carcinoma line COLO205, the human melanoma cell line A375, the human myeloid leukemia cell line HL60, the human breast carcinoma line SKBR3, or the human epidermoid carcinoma cell line KB can be used for the assessment of cytotoxicity of these conjugates. Cells to be evaluated can be exposed to the compounds for 24 hours and the surviving fractions of cells measured in direct assays by known methods. (See, e.g. Goldmacher et al., 135 J. Immunol. 3648-3651 (1985), and Goldmacher et al., 102 J. Cell Biol. 1312-1319 (1986).) IC50 values can then be calculated from the results of the assays.
Further, a trastuzumab conjugate of DM1 synthesized with SIAB was also cytotoxic in clonogenic assays (FIG. 28).

[2] = system: MCF-7 breast carcinoma cell line xenograft; assay: MCF-7 breast carcinoma xenograft model in mice; format: in vivo, SCID mice; settings: FIG. 10C
Method: Antibody conjugates with DM1 using the SMCC linker show anti-tumor efficacy against human tumor xenografts in mice (FIGS. 10A-C). […] In this experiment, one group of five animals bearing established subcutaneous tumors was treated with huC242-SMCC-DM1 at a dose of 150 μg/kg of conjugated DM1. Tumor sizes were measured periodically and graphed vs. time after tumor inoculation. […] In this experiment, three groups of five animals each bearing established subcutaneous SNU tumors were treated with huC242-SMCC-DM1 at doses of 15 μg/kg, 30 μg/kg, and 60 μg/kg of conjugated DM1, respectively. Tumor sizes were measured periodically and graphed vs. time after tumor inoculation.

Substance	cytotoxicity in clonogenic assays in vitro ([1]; FIGS. 9, 22, 28)	specific activity in vitro ([1]; FIGS. 8A-D and 25)	tumor response [2]
trastuzumab-SIAB-DM1: trastuzumab antibody linked to DM1 via the non-cleavable crosslinker SIAB	cytotoxic	–	–
trastuzumab-SMCC-DM1: trastuzumab antibody linked to DM1 via the non-cleavable cross-linking reagent SMCC	–	Specific activity	significant tumor regression
